Results taken from patent US11529394B2, “Polypeptide conjugates and methods of uses” (BEIJING QL BIOPHARMACEUTICAL CO., LTD., priority 2020, dated 2022).
pKd: −log10 of the molar value.

Protein sequences, listed by entry. Tags and fused reporters are not part of them. Residues count along the entry.
UniProt P02768, 25-609: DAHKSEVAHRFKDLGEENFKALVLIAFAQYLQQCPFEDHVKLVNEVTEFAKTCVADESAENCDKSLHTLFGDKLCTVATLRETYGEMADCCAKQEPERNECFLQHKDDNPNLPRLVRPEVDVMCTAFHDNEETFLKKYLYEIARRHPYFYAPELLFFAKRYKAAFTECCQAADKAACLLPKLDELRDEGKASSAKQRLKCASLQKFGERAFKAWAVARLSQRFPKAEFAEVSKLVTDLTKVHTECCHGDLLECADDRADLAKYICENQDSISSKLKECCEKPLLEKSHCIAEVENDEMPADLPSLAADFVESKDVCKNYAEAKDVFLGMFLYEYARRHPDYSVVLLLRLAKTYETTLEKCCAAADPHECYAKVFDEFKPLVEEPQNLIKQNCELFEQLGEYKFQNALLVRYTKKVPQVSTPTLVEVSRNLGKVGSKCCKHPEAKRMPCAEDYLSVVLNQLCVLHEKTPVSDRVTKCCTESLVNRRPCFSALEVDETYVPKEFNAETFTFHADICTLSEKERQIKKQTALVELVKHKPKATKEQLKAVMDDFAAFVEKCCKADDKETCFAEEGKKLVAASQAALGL

How the values were obtained:
[1] = Pharmacokinetic measurement in mice; format: in vivo, C57BL/6 mice; conditions: single s.c. 30 nmol/kg
human serum albumin = human serum albumin (Homo sapiens, UniProt P02768); test: Human serum albumin binding by surface plasmon resonance (Biacore 8K); conditions: human serum albumin on CM5 chip, SPR
[2] = Pharmacokinetic measurement in minipigs; conditions: for AUCtau: Tau = 336 h
[3] = PK study in cynomolgus monkeys, intravenous; conditions: single i.v. 4 nmol/kg

semaglutide
AUCtau ([1]; Tau = 24 h): 0.6147 µM·h
Cmax ([1]; plasma): 43.1 nM
Tmax ([1]; plasma): 6.7 h
pKd (human serum albumin): 5.55
Cmax (C0 for iv) ([2]; i.v. 5 nmol/kg (C0)): 188 nM
AUCtau ([2]; i.v. 5 nmol/kg): 6.643 µM·h
F ([2]; s.c. 5 nmol/kg): 85%
Tmax ([2]; s.c. 5 nmol/kg): 16 h
Cmax (C0 for iv) ([2]; s.c. 5 nmol/kg (Cmax)): 54.9 nM
AUCtau ([2]; s.c. 5 nmol/kg): 5.658 µM·h
C0 [3]: 85.1 nM
AUCtau ([3]; t = […]): 2.402 µM·h
